# System: hepatic transcriptome of mice
# Assay: Hepatic transcriptomic analysis (RNA-seq) in CDAA/c diet-fed mice treated with NTZ
# Format: in vivo
# Settings: NTZ + CDAA/c versus CDAA/c; liver mRNA; NTZ 100 mg/kg/day in diet, 12 weeks
# Protocol: Liver injury was induced in 5-6 week-old male C57Bl/6 mice (Janvier Labs, France) by feeding them a cholesterol (1%) supplemented choline-deficient L-amino acid-defined diet (CDAA/c) (Ssniff, Germany) for 12 weeks (n=12). Some animals received from day 1 and throughout the study CDAA/c diet supplemented with NTZ (Interchim, France) (100 mg/kg/day) (n=8). Mice receiving choline supplemented L-amino acid-defined (CSAA) diet served as additional controls (n=6).
# Total RNA was isolated from mice livers using Nucleospin® 96 RNA kit (ref 740709.4, Macherey Nagel, France) (n=5). Upon measurement of RNA samples concentration by Multiskan™ GO spectrophotometer (Thermo Scientific, France), the quality was assessed using 2100 Bioanalyser from Agilent (USA). Libraries were prepared using the Illumina TruSeq stranded mRNA LT kit (Ref RS-122-2101, Illumina, USA) and mRNA were sequenced using a NextSeq 500 device (paired-end sequence, 2×75 bp), with a High Output flow cell (ref FC-404-2002—NextSeq® 500/550 High Output Kit v2 (150 cycles), Illumina, USA).
# Reads were cleaned using Trimmomatic v.0.36 with the following parameters: SLIDINGWINDOW: 5:20 LEADING: 30 TRAILING: 30 MINLEN: 60 (Bolger et al., Bioinformatics, 2014). Then reads were aligned on the genome reference (Mus musculus GRCm38.90—GenBank assembly accession GCA_000001635.2) with rnacocktail using hisat2 v.2.1.0 as aligner with default parameters (Sahraeian et al. Nature communications 2017).
# A count table was produced using featureCounts v1.5.3 with default parameters (Liao Y et al. Bioinformatics 2014).
# To identify differentially expressed genes (DE genes), we used R (version 3.4.3) and the DESEq2 library (v. 1.18.1). Gene annotations were retrieved using the AnnotationDbi library (v. 1.40.0). Briefly, the count matrix produced by FeatureCounts was analyzed by the DESeqDataSetFromMatrix( ) function followed by the DEseq( ) function from the DESeq2 library. For each condition (ie comparison NTZ+CDAA/c vs CDAA/c), the fold change and the p-value were retrieved using the results( ) function from DESeq2.
structure (smiles),measurement,value
"CC(=O)Oc1ccccc1C(=O)Nc1ncc([N+](=O)[O-])s1 [NTZ, nitazoxanide]",Fold change (log2) Abat,0.792 log2
same,Fold change (log2) Abcc4,1.354 log2
same,Fold change (log2) Arhgef26,1.108 log2
same,Fold change (log2) Ctsk,−0.930 log2
same,Fold change (log2) Glul,0.672 log2
same,Fold change (log2) Gsta2,1.652 log2
same,Fold change (log2) Ldhd,0.659 log2
same,Fold change (log2) Prodh,0.756 log2
same,Fold change (log2) Slc1a2,0.820 log2
same,Fold change (log2) Sugct,0.664 log2
